# Apparent affinities of Ab-95 variants for a coronavirus HR2 peptide

Source: Engelhart et al. 2022 (doi:10.1038/s41597-022-01779-4), MIT Lincoln Laboratory and A-Alpha Bio; data file from the FLAb repository.

All variants were tested on one target, the spike HR2 peptide PDVDLGDISGINAS (SARS-CoV-2).

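The parent was found by panning a naive human phage display library on the peptide. AAYL52 was designed without a model: most single CDR substitutions and a random sample of double and triple ones. The scFvs were displayed on barcoded MATa yeast, the peptide on MATalpha yeast. Binding brings cells together so that they mate, and sequencing counts the barcode pairs among the diploids. A regression on co-assayed BCL2-family reference pairs converts the normalised counts of each replicate to an apparent Kd. Mating was done three times.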

Parent: Ab-95, a human scFv built as VH, a 15-residue (Gly4Ser)3 linker, VL. Only the CDRs of the light chain vary.
VH: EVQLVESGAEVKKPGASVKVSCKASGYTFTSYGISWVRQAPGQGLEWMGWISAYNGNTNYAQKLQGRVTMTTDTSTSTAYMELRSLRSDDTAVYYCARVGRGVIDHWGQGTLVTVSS
VL: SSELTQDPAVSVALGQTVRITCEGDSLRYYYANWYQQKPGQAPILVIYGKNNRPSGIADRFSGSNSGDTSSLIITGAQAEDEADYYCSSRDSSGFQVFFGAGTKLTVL

Each variant is given by its three light chain CDRs, as the data file delimits them; those of the parent are EGDSLRYYYAN, GKNNRPS, SSRDSSGFQVF. Values are apparent Kd, the geometric mean of the replicates that gave a signal; lower means stronger binding. An entry "nd" has no value in the source: the pair was not observed among the diploids in any replicate. This suggests poor binding but is not conclusive.

330 nM (3 of 3 replicates): EGDSLRTYYAN, GKNNRPS, SSIDSSGFQVL.
6.3 µM (1 of 3 replicates): EGDSARYYYAN, IKNNRPS, SSRDSSGFQVW.
10 µM (1 of 3 replicates): EGDSLRYYYAN, GKQNRPS, SSEDSSGFPVF.
nd (0 of 3 replicates): EGDSLRYYYAN, GMNNRPC, SSRDSSGFQMF.
250 nM (3 of 3 replicates): EGDSLRYYTAN, GKNNRPS, SSRDSSGWQDF.
13 µM (2 of 3 replicates): EGDSLRYYYAN, GFNNSPL, SSRDSSGFQVF.
8.9 µM (2 of 3 replicates): EGDSLRAYYAN, GKNNFTS, SSRDSSGFQVF.
15 µM (1 of 3 replicates): EGDSLRYYYAD, AKNNLPS, SSRDSSGFQVF.
440 nM (3 of 3 replicates): EGDSLRYQYAT, DKNNRPS, SSRDSSGFQVF.
35 µM (2 of 3 replicates): EGDKLRHYYAN, GKNNRPS, SSRDMSGFQVF.
nd (0 of 3 replicates): EGDSLRYYYAN, NKNNRPS, PSRDSSGQQVF.
9.5 µM (2 of 3 replicates): EFDSLRYYYAN, SKNNRPS, SSRDSSGFQVQ.
9.5 µM (3 of 3 replicates): EGDSLRYYYAN, GKNNRPS, SSRDSSGFQPN.
1.4 µM (1 of 3 replicates): EGDSLRYYSAD, GKNNRPS, SSRDSSGFQVN.
200 nM (3 of 3 replicates): TGDSLRYYYAN, GKNNRPS, SSRDSCGFVVF.
860 nM (3 of 3 replicates): EDDSFRYYYIN, GKNNRPS, SSRDSSGFQVF.
32 µM (1 of 3 replicates): EFDSLRAYYAN, VKNNRPS, SSRDSSGFQVF.
11 µM (2 of 3 replicates): EGDYLMYYYAN, GKNNRGS, SSRDSSGFQVF.
2.3 µM (2 of 3 replicates): EGDSLRYYYAN, GKNNRMK, SSYDSSGFQVF.
220 nM (3 of 3 replicates): EGYSLRYYYAN, GKNNRPS, DSRDSSGFQVF.
nd (0 of 3 replicates): EGDSLRYYYAN, GLNNRPS, NSRDSAGFQVF.
nd (0 of 3 replicates): EKDSLRYYLAN, GKNSRPS, SSRDSSGFQVF.
4.2 µM (3 of 3 replicates): EGDSLRYYYAN, GKNNRPS, SSNDSSVCQVF.
1.1 µM (3 of 3 replicates): EGDPLRYYYAN, GKNNRPS, SRRDSSGFLVF.
4.8 µM (1 of 3 replicates): LGDSHRYYYAN, GKNNRPS, SSRDSSGFQVV.
210 nM (3 of 3 replicates): EGMSLRYYYAN, GKNNRPS, SSRDSSGFNVF.
22 µM (1 of 3 replicates): LGDSLRYYYAN, GKANRPS, SSRDSSGHQVF.
200 nM (3 of 3 replicates): EGDSLRYYYAN, GKNNRHS, SSRSSSGQQVF.
1.0 µM (3 of 3 replicates): EGHSLRYYYAN, GKNNRPS, SSRDSSCFQVQ.
nd (0 of 3 replicates): EHDSLRYYNAN, GKNNRPS, KSRDSSGFQVF.
19 nM (3 of 3 replicates): EGDSLRYQYAN, GKNNRPS, SSRDSSGFMTF.
nd (0 of 3 replicates): EGDSLRYYYAN, CKNNRNS, SSRKSSGFQVF.
4.9 µM (1 of 3 replicates): EGDSLRYYCAN, GKNNRPS, SSRLSSGFQPF.
1.4 µM (1 of 3 replicates): EGDSLRYYYIN, GKNNRPS, SSRDDSGFAVF.
5.7 µM (2 of 3 replicates): ELDSLRGYYAN, GKNNRPC, SSRDSSGFQVF.
nd (0 of 3 replicates): EGDSLRYYYQN, GKNNRPS, SSRDGSGFNVF.
36 µM (1 of 3 replicates): EGDSLRYYYAN, GMTNRPS, SSRDGSGFQVF.
2.7 µM (3 of 3 replicates): VGDSLRYYYAN, GTNNRPS, SSRDSSGKQVF.
610 µM (1 of 3 replicates): EGDSLRYYYAN, GNNNRPS, SSRDSSWFQCF.

Three control strains display no target. For library AAYL52, 28% of the pairings with them gave a signal, with a median of 8.2 µM and one signal in twenty below 800 nM, so weak values seen in few replicates may be background.